From patent publication US9200265B2, “Anti-cocaine compositions and treatment” (priority 2006, dated 2015)

Test system: cocaine-induced lethality
Test: Rodent model of acute cocaine toxicity (convulsions and lethality) in rats
Details: 1 mg i.v. one minute before 180 mg/kg cocaine i.p.

B1: PMSF-treated enzyme: wild-type enzyme covalently modified within the active site by phenylmethyl sulphonate fluoride (PMSF) (protein, UniProt Q9L9D7 1-574, looked up)
Cocaine esterase: MVDGNYSVASNVMVPMRDGVRLAVDLYRPDADGPVPVLLVRNPYDKFDVFAWSTQSTNWLEFVRDGYAVVIQDTRGLFASEGEFVPHVDDEADAEDTLSWILEQAWCDGNVGMFGVSYLGVTQWQAAVSGVGGLKAIAPSMASADLYRAPWYGPGGALSVEALLGWSALIGTGLITSRSDARPEDAADFVQLAAILNDVAGAASVTPLAEQPLLGRLIPWVIDQVVDHPDNDESWQSISLFERLGGLATPALITAGWYDGFVGESLRTFVAVKDNADARLVVGPWSHSNLTGRNADRKFGIAATYPIQEATTMHKAFFDRHLRGETDALAGVPKVRLFVMGIDEWRDETDWPLPDTAYTPFYLGGSGAANTSTGGGTLSTSISGTESADTYLYDPADPVPSLGGTLLFHNGDNGPADQRPIHDRDDVLCYSTEVLTDPVEVTGTVSARLFVSSSAVDTDFTAKLVDVFPDGRAIALCDGIVRMRYRETLVNPTLIEAGEIYEVAIDMLATSNVFLPGHRIMVQVSSSNFPKYDRNSNTGGVIAREQLEEMCTAVNRIHRGPEHPSHIVLPIIKR
modifications: active site covalently modified by PMSF
- protective effect against cocaine (convulsions and lethality): eliminated CocE's protective effect
